“And” between values parts separate entries of the source, which are not always exact repeats. Equal values may be shown once. Only a part is listed here, and it is no random draw. Inconclusive results are not listed. The source made the active and inactive calls. Unless noted, calls come from the whole dose curve; as a rule, active = well fitted curve in the direction sought with a large enough effect; inconclusive = small, poorly fitted or top-dose-only effect, or another doubt; inactive = no such curve, though single readings can be large; an effect the other way counts as inactive or inconclusive.
Columns and labels:
[1] = biological target: Thioredoxin reductase 1, cytoplasmic (Rattus norvegicus) (UniProt O89049); assay: qHTS Assay for Inhibitors of Mammalian Selenoprotein Thioredoxin Reductase 1 (TrxR1) (AID 488773); details: purified TrxR1 enzyme activity; at 57.1 µM (top of the series);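 note: drop in NADPH fluorescence over an 8 min run after selenite addition; % is set by controls: 0 for no effect and ±100 for the full control effect; nearly all actives have a fitted effect of over 40% in size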
Outline: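 Inhibition is scored from the loss of NADPH fluorescence between first and last reads of an 8-min kinetic run. Selenite (400 uM) was the substrate, added after 15 min compound preincubation at room temperature.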

Sequences of proteins named here, by UniProt entry; tags and fusion partners are left off. A change or cut given only in a name is not applied to a line headed by its entry.
UniProt O89049, whole entry, looked up: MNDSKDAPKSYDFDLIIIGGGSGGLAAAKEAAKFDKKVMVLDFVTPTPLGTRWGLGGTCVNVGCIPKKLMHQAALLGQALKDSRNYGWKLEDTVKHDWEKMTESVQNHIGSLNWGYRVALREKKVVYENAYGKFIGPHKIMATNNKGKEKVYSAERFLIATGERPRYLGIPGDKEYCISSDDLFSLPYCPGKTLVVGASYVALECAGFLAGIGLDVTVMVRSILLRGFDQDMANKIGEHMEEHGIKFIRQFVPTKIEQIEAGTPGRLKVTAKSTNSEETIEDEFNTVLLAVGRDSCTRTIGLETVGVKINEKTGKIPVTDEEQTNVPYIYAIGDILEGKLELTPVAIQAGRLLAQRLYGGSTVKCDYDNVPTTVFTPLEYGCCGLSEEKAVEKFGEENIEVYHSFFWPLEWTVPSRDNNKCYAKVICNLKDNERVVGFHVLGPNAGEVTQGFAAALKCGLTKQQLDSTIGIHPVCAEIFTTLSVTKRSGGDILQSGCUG
UniProt P39748, whole entry, looked up: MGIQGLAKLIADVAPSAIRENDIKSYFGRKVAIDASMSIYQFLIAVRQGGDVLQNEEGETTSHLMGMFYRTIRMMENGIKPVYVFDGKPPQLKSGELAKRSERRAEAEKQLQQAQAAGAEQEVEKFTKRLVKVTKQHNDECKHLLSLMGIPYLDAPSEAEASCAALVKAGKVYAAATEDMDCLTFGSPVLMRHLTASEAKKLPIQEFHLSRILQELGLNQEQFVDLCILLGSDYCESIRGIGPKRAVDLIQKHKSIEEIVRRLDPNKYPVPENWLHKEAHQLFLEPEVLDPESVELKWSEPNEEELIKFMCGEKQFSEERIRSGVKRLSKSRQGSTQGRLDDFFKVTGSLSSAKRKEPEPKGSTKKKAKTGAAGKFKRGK
UniProt P83916, whole entry, looked up: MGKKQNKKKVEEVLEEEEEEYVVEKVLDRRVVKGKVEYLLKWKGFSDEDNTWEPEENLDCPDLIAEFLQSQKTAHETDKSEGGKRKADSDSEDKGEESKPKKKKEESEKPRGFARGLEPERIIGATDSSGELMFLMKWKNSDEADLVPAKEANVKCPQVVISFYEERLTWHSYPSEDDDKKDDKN
UniProt Q6LX38: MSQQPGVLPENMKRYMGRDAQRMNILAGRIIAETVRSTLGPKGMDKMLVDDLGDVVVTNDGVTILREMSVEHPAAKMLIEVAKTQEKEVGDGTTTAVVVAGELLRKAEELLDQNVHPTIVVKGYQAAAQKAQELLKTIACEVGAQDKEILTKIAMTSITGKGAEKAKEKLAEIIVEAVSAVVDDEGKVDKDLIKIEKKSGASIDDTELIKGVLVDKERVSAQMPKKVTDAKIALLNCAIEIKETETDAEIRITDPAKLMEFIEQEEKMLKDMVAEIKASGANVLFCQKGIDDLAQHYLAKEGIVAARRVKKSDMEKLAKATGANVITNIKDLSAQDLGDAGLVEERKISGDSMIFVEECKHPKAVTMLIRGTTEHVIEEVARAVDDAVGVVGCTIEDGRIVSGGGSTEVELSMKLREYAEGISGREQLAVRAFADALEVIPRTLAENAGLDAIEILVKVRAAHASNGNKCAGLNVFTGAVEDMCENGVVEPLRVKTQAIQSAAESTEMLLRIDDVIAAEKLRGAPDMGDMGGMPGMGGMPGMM
UniProt P21728, whole entry, looked up: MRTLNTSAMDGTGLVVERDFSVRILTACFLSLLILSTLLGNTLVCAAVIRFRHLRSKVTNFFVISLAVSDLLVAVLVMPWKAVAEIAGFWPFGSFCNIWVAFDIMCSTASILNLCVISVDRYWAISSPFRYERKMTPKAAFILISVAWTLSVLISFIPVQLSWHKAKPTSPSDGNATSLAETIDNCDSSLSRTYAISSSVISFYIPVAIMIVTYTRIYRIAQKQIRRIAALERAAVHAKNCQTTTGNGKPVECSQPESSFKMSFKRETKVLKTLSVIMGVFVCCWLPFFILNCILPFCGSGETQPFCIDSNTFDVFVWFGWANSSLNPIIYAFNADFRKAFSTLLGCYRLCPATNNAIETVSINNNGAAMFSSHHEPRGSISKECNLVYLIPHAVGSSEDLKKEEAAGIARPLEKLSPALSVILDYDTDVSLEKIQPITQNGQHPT
UniProt Q96QE3: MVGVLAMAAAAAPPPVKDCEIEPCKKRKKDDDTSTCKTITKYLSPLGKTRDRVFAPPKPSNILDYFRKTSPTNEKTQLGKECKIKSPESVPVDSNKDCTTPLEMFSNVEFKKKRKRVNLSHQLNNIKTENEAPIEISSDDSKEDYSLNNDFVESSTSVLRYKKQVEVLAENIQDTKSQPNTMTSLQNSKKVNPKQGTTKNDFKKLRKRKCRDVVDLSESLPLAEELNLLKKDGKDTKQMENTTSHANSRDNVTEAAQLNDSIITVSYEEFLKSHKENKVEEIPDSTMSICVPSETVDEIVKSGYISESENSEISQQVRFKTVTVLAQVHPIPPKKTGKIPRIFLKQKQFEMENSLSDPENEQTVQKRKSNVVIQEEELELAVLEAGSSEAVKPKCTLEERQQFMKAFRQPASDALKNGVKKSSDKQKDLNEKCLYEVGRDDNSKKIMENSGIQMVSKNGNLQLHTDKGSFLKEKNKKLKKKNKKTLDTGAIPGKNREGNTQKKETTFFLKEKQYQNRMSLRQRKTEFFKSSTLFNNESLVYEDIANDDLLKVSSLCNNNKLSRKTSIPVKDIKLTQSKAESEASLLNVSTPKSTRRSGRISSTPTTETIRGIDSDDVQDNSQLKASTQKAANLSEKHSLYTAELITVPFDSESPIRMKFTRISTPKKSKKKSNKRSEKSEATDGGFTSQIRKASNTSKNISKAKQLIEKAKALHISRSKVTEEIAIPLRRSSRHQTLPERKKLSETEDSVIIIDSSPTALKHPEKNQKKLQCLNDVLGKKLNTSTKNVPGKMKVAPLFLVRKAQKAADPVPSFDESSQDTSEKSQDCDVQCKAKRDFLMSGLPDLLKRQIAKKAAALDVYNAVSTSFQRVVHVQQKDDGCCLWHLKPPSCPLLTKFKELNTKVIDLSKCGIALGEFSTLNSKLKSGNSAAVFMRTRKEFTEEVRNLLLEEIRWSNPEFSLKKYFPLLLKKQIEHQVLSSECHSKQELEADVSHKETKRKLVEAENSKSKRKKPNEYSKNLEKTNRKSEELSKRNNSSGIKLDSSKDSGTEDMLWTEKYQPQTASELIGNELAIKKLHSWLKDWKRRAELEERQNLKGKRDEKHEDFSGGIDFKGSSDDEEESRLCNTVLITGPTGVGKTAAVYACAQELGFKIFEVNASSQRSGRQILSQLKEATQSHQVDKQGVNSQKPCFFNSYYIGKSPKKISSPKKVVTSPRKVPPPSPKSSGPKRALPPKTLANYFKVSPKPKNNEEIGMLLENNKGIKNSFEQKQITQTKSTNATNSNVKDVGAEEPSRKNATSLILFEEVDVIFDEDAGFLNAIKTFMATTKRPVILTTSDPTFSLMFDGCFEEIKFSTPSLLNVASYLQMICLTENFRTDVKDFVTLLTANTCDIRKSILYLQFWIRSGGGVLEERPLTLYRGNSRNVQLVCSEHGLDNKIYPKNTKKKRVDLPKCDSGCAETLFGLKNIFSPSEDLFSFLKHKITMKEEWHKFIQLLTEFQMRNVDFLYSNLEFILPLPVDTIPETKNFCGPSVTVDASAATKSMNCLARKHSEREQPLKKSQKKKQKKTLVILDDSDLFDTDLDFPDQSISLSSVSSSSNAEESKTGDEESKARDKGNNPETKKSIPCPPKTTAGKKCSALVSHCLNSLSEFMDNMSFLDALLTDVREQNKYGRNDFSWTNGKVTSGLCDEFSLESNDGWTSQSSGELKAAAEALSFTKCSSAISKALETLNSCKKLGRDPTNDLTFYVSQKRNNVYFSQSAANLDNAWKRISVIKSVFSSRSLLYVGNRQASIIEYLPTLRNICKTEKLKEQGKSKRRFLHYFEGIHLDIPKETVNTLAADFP
UniProt P34981: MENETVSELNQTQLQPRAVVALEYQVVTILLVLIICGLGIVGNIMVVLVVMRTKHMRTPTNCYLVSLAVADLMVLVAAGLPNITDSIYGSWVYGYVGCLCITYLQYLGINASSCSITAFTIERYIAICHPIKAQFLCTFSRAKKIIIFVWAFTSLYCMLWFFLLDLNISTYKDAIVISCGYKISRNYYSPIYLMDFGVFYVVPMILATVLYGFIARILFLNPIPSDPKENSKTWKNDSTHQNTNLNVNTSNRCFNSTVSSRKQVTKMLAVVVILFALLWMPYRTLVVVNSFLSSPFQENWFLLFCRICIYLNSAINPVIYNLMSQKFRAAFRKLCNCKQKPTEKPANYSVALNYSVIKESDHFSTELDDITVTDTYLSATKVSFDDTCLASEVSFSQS
UniProt P51570: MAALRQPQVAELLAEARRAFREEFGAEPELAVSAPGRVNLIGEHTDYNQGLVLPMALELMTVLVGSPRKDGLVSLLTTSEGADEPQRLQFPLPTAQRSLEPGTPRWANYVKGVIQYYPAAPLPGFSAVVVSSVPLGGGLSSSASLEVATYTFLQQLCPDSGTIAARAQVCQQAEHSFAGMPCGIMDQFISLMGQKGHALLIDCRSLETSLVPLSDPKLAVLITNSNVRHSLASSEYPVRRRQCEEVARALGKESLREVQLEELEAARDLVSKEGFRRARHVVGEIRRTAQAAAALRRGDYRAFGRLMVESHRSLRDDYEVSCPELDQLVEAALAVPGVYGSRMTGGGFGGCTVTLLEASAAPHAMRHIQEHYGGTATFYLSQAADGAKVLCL
UniProt Q13526, whole entry, looked up: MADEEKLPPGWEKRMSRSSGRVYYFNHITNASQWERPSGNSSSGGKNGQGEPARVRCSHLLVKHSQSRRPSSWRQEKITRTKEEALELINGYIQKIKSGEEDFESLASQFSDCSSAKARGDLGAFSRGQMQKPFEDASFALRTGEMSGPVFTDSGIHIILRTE

[2] = biological target: Flap endonuclease 1 (Homo sapiens) (UniProt P39748); assay: qHTS Validation Assay for the Inhibitors of Human Flap endonuclease 1 (FEN1) (AID 488816); details: FEN1 nuclease activity, fluorogenic DNA substrate; at 57.1 µM (top of the series); note: % is set by controls: 0 for no effect and ±100 for the full control effect
Outline: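 qHTS format: compounds and 10 nM FEN1 incubated 15 min at room temperature before adding 50 nM substrate. Cleavage followed by reads at 0 and 15 min; normalized data fitted to a four-parameter Hill curve.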

[3] = biological target: Chromobox protein homolog 1 (Homo sapiens) (UniProt P83916); assay: qHTS Validation Assay for Inhibitors of HP1-beta Chromodomain Interactions with Methylated Histone Tails (AID 488953); details: HP1-beta chromodomain / methylated histone peptide binding assay; at 114 µM (top of the series);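 note: loss of AlphaScreen luminescence from HP1-beta binding biotinylated H3K9me3 peptide; % is set by controls: 0 for no effect and ±100 for the full control effect; nearly all actives have a fitted effect of over 50% in size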
[4] = biological target: Methanococcus maripaludis chaperonin (MmCpn) (UniProt Q6LX38); assay: High-Throughput Screening for Modulators of Cytosolic Chaperonin Activity: MmCpn Primary Screen (AID 488978); details: MmCpn chaperonin refolding activity, biochemical qHTS; at 76.9 µM (top of the series);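 note: 50 nM MmCpn enzyme hydrolysing 30 µM ATP at 37 °C; 0% is about no effect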
Outline: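 ATPase activity of 50 nM MmCpn was assayed with 30 uM ATP, 10 minutes at 37C, after a 5 min compound preincubation at room temperature. ADP production was read as HTRF emission at 590 and 665 nm.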

[5] = biological target: D(1A) dopamine receptor (Homo sapiens) (UniProt P21728); assay: HTS Assay for Allosteric Agonists of the Human D1 Dopamine Receptor: Primary Screen for Agonists (AID 488981); details: D1 receptor-expressing cells, agonist cAMP readout; at 41.8 µM (top of the series); note: 0% is about no effect
Outline: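 Calcium flux in an inducible, force-coupled HEK293 Trex D1 line (overnight at 30 C): agonist mode is the 180 s kinetic read after compound; potentiator mode is the following 180 s read after dopamine at EC20.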

[6] = biological target: D(1A) dopamine receptor (Homo sapiens) (UniProt P21728); assay: HTS Assay for Allosteric Agonists of the Human D1 Dopamine Receptor: Primary Screen for Potentiators (AID 488982); details: D1 receptor cells, potentiator mode, cAMP signal; at 8.37 µM (top of the series); note: 0% is about no effect
[7] = biological target: D(1A) dopamine receptor (Homo sapiens) (UniProt P21728); assay: HTS Assay for Allosteric Agonists of the Human D1 Dopamine Receptor: Primary Screen for Antagonists (AID 488983); details: D1 receptor cell assay, antagonist mode, qHTS titration; at 41.8 µM (top of the series);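 note: calcium flux response to an EC80 dopamine challenge measured with no-wash dye; % is set by controls: 0 for no effect and ±100 for the full control effect; nearly all actives have a fitted effect of over 65% in size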
[8] = Validation screen for small molecules that induce genotoxicity in human embryonic kidney (HEK293T) cells expressing luciferase-tagged ELG1 (AID 493106); details: luminescence; at 46.1 µM (top of the series); note: 0% is about no effect
Outline: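 In this validation screen, increased ELG1-luciferase signal flags compounds causing genetic stress. HEK293T reporter cells are treated 16 hr (37 °C, 5% CO2), developed with ONE-Glo for 30 min at room temperature, and imaged on a CCD-based reader.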

[9] = biological target: ATPase family AAA domain-containing protein 5 (Homo sapiens) (UniProt Q96QE3); assay: Validation screen for small molecules that inhibit ELG1-dependent DNA repair in human embryonic kidney (HEK293T) cells expressing luciferase-tagged ELG1 (AID 493107); details: HEK293T ELG1-luciferase level, luminescence, 5-fluorouridine co-treatment, 16 h; at 46.1 µM (top of the series);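 note: cells co-treated with the DNA-damaging agent 5-fluorouridine alongside compound; % is set by controls: 0 for no effect and ±100 for the full control effect; inhibitors lower the ELG1-luciferase luminescence signal; nearly all actives have a fitted effect of over 70% in size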
Outline: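 Compounds reducing 5-fluorouridine-driven ELG1-luciferase signal in HEK293T cells were scored; exposure lasted 16 hr at 37 °C with luminescence detected via ONE-Glo.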

[10] = biological target: Thyrotropin-releasing hormone receptor (Homo sapiens) (UniProt P34981); assay: qHTS for Small Molecule Agonists and Allosteric Enhancers of Human TRH Receptor: Validation Screen for Agonists (AID 493127;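 active = calcium activation more than 3 SD above the typical response in the agonist read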;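 note: intracellular calcium rise by fluo-8 fluorescence before TRH EC20 addition; 0% is about no effect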); details: TRH receptor agonist cell assay; at 2 µM; stronger effect = higher value
Outline: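 Kinetic fluorescence assay of agonist-induced calcium release: overnight-plated TRHR cells, room-temperature fluo-8 loading, baseline then compound addition with per-second reads.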

[11] = Nrf2 qHTS screen for inhibitors: Validation (AID 493153; active = well fitted inhibition curve with a large enough effect in the main read-out, with a control signal flat, not every such curve was filed as active;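 note: A549 cells with ARE-driven firefly luciferase reporter reporting Nrf2 activity; % of control where 0% means no effect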); details: A549 ARE-Fluc reporter, luciferase luminescence, 18-24 h; at 46.1 µM (top of the series)
[12] = qHTS for Inhibitors of Cell Surface uPA Generation: Validation Assay (AID 493164); details: mouse cells, plasminogen activation; at 38.3 µM (top of the series);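 note: RAW 264.7 macrophage cells exposed to compound for 18 h; 0% is about no effect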
Outline: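 Compounds are titrated over seven points (2.45 nM–38.3 uM final) onto pre-plated RAW 264.7 cells and incubated for 18 h. Retained intracellular ATP, measured with ATP-Lite, indicates blocked lethal factor entry.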

[13] = biological target: Galactokinase (Homo sapiens) (UniProt P51570); assay: qHTS Validation Assay for Inhibitors of Human Galactokinase (GALK) (AID 493189); details: purified human GALK enzyme activity, qHTS 7-point titration; at 57.5 µM (top of the series); note: 0% is about no effect
Outline: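 Inhibition was measured as remaining ATP, detected by luciferase luminescence after a 1 h room-temperature reaction. Final conditions: 5 nM GALK, 100 uM galactose, 35 uM ATP, pH 8.0 HEPES buffer.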

[14] = Validation screen for small molecules that induce DNA re-replication in SW480 colon adenocarcinoma cells (AID 504364); details: DNA re-replication phenotype (high-content imaging); at 46.1 µM (top of the series); note: 0% is about no effect
Outline: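 Hoechst-stained SW480 nuclei, imaged at 405 nm excitation after 48 hr compound exposure, were counted for elevated DNA content as the re-replication signal.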

[15] = biological target: Peptidyl-prolyl cis-trans isomerase NIMA-interacting 1 (Homo sapiens) (UniProt Q13526); assay: qHTS Validation Assay to Find Inhibitors of Pin1 (AID 504536; active = well fitted inhibition curve with a large enough effect in the polarisation, with a control signal flat, not every such curve was filed as active; the % refers to the polarisation;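 note: 0% = full Pin1 enzyme wells and -100% = no-enzyme wells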); details: Pin1 fluorescence polarization peptide binding assay; at 57.5 µM (top of the series)
Outline: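 Fluorescence polarization competition: compounds (titration) displace HiFluor-488-labeled Pin1-1b peptide from Pin1 (0.3 uM final) in pH 7.5 HEPES buffer with DTT, 10 min at room temperature; %Activity normalized to no-enzyme wells, curves fitted.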

[16] = Inducers of the Endoplasmic Reticulum Stress Response (ERSR) in human glioma: Validation (AID 504836); details: human glioma cells, ER stress response reporter; at 38.3 µM (top of the series); note: 0% is about no effect
Outline: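 ERSR induction read as luciferase luminescence (Bright-Glo, 10 min at room temperature) in stably transfected human U87-MG glioma cells exposed to compounds for 16 h, using GRP78 as sensor.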

CN(C(=O)Cc1ccc(Cl)c(Cl)c1)[C@H]1CCCC[C@@H]1N1CCCC1
inactive: activity change, negative = inhibition [1] 1.69% and -3.64% | activity, negative = inhibition [2] -1.75% and -2.1% | activity change, negative = inhibition [3] -9.17% and 16.8% | activity change, negative = inhibition [4] -1.04% and 0.109% | activation [5] 7.14% and 5.24% | activity, positive = potentiation [6] -29.8% and -3.67% | activity change, negative = inhibition [7] 3.5% and 6.77% | activity change, positive = ELG1 induction [8] -8.16% and -8.1% | activity change, negative = decrease [9] -2.19% and 1.6% | activation [10] 1% and 0.188% | activity change, negative = inhibition [11] 10.6% and 6.3% | activity change [12] 0.234% and -0.512% | activity change, negative = inhibition [13] 3.27% | activity (re-replication induction) [14] 11.7% and 21.4% | activity, negative = inhibition [15] 4.48% and 0.809% | activation [16] -3.32% and -1.65%

Reference: PubChem BioAssay (NCATS)
